From patent publication US20070037752A1, “Novel alanyl-amino peptidase inhibitors for functionally influencing different cells and treating immunological, inflammatory, neuronal, and other diseases” (priority 2003, published 2007)
Where two headings read alike, the source gives them in different places.

Amino acid sequences for entries named in this document (tags omitted). A change or cut given only in a name is not applied to a line headed by its entry.
UniProt P15144: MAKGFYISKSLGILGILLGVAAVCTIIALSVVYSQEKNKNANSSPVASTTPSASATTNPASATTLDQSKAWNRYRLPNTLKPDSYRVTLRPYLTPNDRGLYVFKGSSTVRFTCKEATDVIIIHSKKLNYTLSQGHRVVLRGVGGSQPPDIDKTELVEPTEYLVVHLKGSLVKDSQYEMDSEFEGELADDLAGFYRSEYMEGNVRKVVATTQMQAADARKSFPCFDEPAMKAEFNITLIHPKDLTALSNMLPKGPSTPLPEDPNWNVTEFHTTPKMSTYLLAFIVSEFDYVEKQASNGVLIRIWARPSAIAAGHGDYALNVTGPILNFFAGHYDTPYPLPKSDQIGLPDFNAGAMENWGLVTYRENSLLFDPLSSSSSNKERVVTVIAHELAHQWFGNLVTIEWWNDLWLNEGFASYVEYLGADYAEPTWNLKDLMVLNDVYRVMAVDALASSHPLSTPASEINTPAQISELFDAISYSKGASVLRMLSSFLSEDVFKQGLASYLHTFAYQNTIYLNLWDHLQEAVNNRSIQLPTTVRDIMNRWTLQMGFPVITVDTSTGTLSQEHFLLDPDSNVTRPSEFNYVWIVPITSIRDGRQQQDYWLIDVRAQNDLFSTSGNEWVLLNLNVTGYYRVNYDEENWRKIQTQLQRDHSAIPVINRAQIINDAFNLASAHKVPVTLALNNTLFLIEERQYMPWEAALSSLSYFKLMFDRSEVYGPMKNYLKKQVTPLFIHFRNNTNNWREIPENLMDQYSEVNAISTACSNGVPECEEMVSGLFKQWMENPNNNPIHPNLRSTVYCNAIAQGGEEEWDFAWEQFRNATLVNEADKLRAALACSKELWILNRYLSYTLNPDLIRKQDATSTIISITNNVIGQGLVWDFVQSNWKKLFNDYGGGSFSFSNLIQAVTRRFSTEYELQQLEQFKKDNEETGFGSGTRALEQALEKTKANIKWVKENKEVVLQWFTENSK

Molecular target: alanyl aminopeptidases (APN) (Homo sapiens, UniProt P15144)
Assay: Inhibition of alanyl aminopeptidase enzymatic activity, fluorogenic substrate (Ala)2-rhodamine 110
Assay type: biochemical
Settings: read-out: IC50APN

| Structure (SMILES) | IC50 (Table 9, unstarred values) [µM] | IC50 (Table 12) [µM] | IC50 (Table 8, unstarred values) [µM] | IC50 (Table 3, unstarred values) [µM] |
| --- | --- | --- | --- | --- |
| O=C(NC(Sc1ncccn1)C(Cl)(Cl)Cl)c1ccccc1 (stereo not drawn) | 17.9 | 17.9 | – | – |
| Cc1cc(N(C)C)cc[n+]1C(=O)N(C)C | 27.6 | – | 27.6 | – |
| Cn1nc([N+](=O)[O-])nc1-n1cc([N+](=O)[O-])cn1 | – | – | 34.4 | 34.5 |
